Reference: paper PMC6484532 (Slas Discovery, 2019)

Sequences of proteins named here, by UniProt entry; tags and fusion partners are left off. A change or cut given only in a name is not applied to a line headed by its entry.
UniProt O76290: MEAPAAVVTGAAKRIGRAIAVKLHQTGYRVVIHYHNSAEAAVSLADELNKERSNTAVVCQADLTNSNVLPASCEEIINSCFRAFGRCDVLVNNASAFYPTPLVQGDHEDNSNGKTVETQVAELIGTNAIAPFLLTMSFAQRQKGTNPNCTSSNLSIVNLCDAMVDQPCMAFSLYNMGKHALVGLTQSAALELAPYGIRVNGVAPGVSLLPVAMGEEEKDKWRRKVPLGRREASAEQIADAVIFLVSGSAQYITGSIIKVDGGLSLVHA

Molecular target: Trypanosoma brucei pteridine reductase 1 (TbPTR1) (Trypanosoma brucei, UniProt O76290)
Assay: cytochrome c-coupled kinetic absorbance assay
Assay type: biochemical

IC50: 0.0167 ± 0.005 µM
SMILES: CCc1nc(N)nc(N)c1-c1ccc(Cl)cc1 [pyrimethamine]
